Screening data: PubChem BioAssay, several laboratories
This is a sample that favours compounds with a hit; in the whole collection about 2.1% have one here.
UUG fidelity: modulators of yeast start codon fidelity, primary screen, whole organism, S. cerevisiae, single point, plate reader | S. cerevisiae UUG-firefly luciferase reporter, luminescence/redox ratio | activity score, % at 18.7 µM | hit rate 0.13% among 350,000;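 active = replicate mean at a twofold rise or more, about +100% in these data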;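 note: firefly luciferase made from a UUG start codon reports start codon fidelity; reporter light over untreated wells divided by growth signal over untreated wells; some hits fall short of that in this replicate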
GSIS activator: primary screen for activators of insulin secretion dependent on glucose, INS-1E cells, GLuc reporter luminescence | AID 743287 | INS-1E GLuc reporter insulin secretion, 2-3 h | actives 0.61% (n = 370,000) | activation, % at 16.6 µM;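 active = lowest replicate activation of at least 40%, so every replicate reaches that level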;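 note: 0% = median of neutral control wells and 100% = median of IBMX positive control wells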
PDI turbidity: PDI (human) enzyme inhibition; PDI insulin aggregation turbidity, A650, 90 min; inhibition, % at 10 µM; actives 0.052% (n = 350,000); AID 588391;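 active = mean inhibition across replicates of 30% or more, whatever share of single replicates reach that level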
ERp5 block: ERp5 (human) disulfide isomerase inhibition; actives 0.05% (n = 350,000); Q15084; inhibition, % at 9.99 µM; ERp5 insulin aggregation, absorbance 650 nm, 90 min;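 active = mean replicate inhibition above about 25%, with every replicate also reaching it, limit read from the data, passing the limit was not always enough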
Rev-erbA mod: modulators of human Rev-erb alpha DNA binding; Rev-erbα–FITC-DNA binding, fluorescence polarization, 90 min; activity, % at 10 µM; actives 0.79% (n = 370,000);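 active = activity above about 14%, limit read from the data; passing the limit was not always enough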;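 note: 0% = DMSO wells with 35 nM protein and 100% = DMSO wells with 750 nM protein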
SMARCA2 activ: activators of SMARCA2 function | MG213 cells, MMTV-luciferase reporter, dexamethasone, overnight | activation, % at 9.1 µM | actives 1% (n = 370,000) | AID 652017; in the data active = activation above about 7.8%;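 note: 0% = vehicle wells and 100% = reference activator wells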
* = called active by the depositor; . = no result.

item	Compound	PDI turbidity	Rev-erbA mod	GSIS activator	SMARCA2 activ	UUG fidelity	ERp5 block
1	CCCn1c(C)nc2c(c1=O)c1nc3ccccc3nc1n2CCC1=CCCCC1	1.5	1.8	60.7*	-1.1	-4.3	.
2	Cc1nc2c(c(=O)n1CCC1=CCCCC1)c1nc3ccccc3nc1n2/N=C/c1ccco1	-2.9	-32.1	-24.7	0.5	-15.9	.
3	C[C@@H]1CN([C@H](C)CO)C(=O)c2cc(NC(=O)Nc3ccc(C(F)(F)F)cc3)ccc2O[C@@H]1CN(C)S(=O)(=O)c1ccc(F)cc1	.	.	-43.1	.	-3.5	29.5*
4	C[C@@H]1CN([C@H](C)CO)C(=O)Cc2cc(NC(=O)Nc3cccc4ccccc34)ccc2O[C@H]1CN(C)C(=O)Nc1cccc2ccccc12	.	.	7.9	.	-4.5	14.9
5	C[C@H](CO)N1C[C@H](C)[C@@H](CN(C)S(=O)(=O)c2ccc(F)cc2)Oc2ccc(NC(=O)Nc3ccc(C(F)(F)F)cc3)cc2C1=O	-3.8	0.3	-36.3	1.7	-31.1	-5.2
6	C[C@H]1CN([C@@H](C)CO)C(=O)Cc2cc(NC(=O)Nc3cccc4ccccc34)ccc2O[C@H]1CN(C)C(=O)Nc1cccc2ccccc12	.	.	4.2	.	-10.8	25.8*
7	C[C@@H]1CN([C@@H](C)CO)C(=O)c2cc(NC(=O)Nc3ccc4c(c3)OCO4)ccc2O[C@@H]1CN(C)Cc1ccc(C(=O)O)cc1	.	.	28.7	.	10.5	39.5*
8	C[C@@H]1CN([C@H](C)CO)C(=O)c2cc(NC(=O)Nc3cccc4ccccc34)ccc2O[C@@H]1CN(C)C(=O)Nc1cccc2ccccc12	.	.	4.4	.	11.4	33.0*
9	CNC[C@H]1Oc2ccc(N(C)C)cc2CC(=O)N([C@H](C)CO)C[C@@H]1C	.	.	1.2	.	-8.5	6.3
10	COc1ccc2c3c([nH]c2c1)[C@H](CO)N(C(=O)NC(C)C)CC31CN(C(=O)NC(C)C)C1	.	.	11.0	.	.	4.0
11	c1ccc(COc2ccc(OCCCN3CCCCC3)cc2)cc1	-1.7	1.0	.	6.1	-18.3	.
12	c1ccc(COc2ccc(OCCCCN3CCCC3)cc2)cc1	5.2	-1.4	20.2	19.3*	-33.8	.
13	O=[N+]([O-])/C=C/c1c(OCc2ccccc2)ccc2ccccc12	-4.1	.	.	.	285.8*	.
14	O=C(c1ccc(F)cc1)N1CC(=O)N2[C@@H](CO)[C@@H](c3ccc(C4=CCCC4)cc3)[C@@H]2C1	.	.	-1.5	.	.	-0.2
15	CC1CCN(C(=O)c2cccc(S(=O)(=O)N3CCN(c4ccccc4)CC3)c2)CC1	-5.3	-2.5	41.6*	0.5	.	-4.8

UUG fidelity: hit marks shown above.
item	Compound	PDI turbidity	Rev-erbA mod	GSIS activator	SMARCA2 activ	UUG fidelity	ERp5 block
13	O=[N+]([O-])/C=C/c1c(OCc2ccccc2)ccc2ccccc12	-4.1	.	.	.	285.8*	.

Other structures.
item	Compound	PDI turbidity	Rev-erbA mod	GSIS activator	SMARCA2 activ	UUG fidelity	ERp5 block
16	CCOc1ccc(OCCC(=O)N(CC)CC(=O)NCc2cccs2)cc1	-5.6	-0.8	41.1*	-2.5	0.4	0.7
17	C[C@@H]1CN([C@@H](C)CO)C(=O)c2cc(NC(=O)CCN3CCOCC3)ccc2O[C@H]1CN(C)S(=O)(=O)c1ccc(F)cc1	.	.	26.5	.	17.7	0.2
18	CCc1cccc(CC)c1NC(=O)CSc1nnc(C2CC2)n1C	-5.4	3.0	44.6*	-4.0	-31.9	1.7
19	Cn1c(SCC(=O)NC2CCCc3ccccc32)nnc1C1CC1 (stereo not drawn)	-1.3	-3.3	81.7*	-3.4	-21.1	-4.3
20	Cn1cnnc1SCC(=O)NC1CCCc2ccccc21 (stereo not drawn)	-1.5	0.3	2.4	3.0	.	-7.1
21	COc1ccc(CN(C)C[C@H]2Oc3ccc(NC(=O)NC(C)C)cc3C(=O)N([C@@H](C)CO)C[C@@H]2C)cc1	.	.	13.1	.	.	-0.7
22	CN1c2ccc(C#Cc3cccnc3)cc2[C@H]2[C@H](CCN2C(=O)C2CCCC2)[C@@H]1CO	.	.	1.7	.	.	1.8
23	CCN1CCN(c2ccc(S(=O)(=O)N3CCCCC3)cc2NC(=O)c2cc3ccccc3o2)CC1	-11.7	-0.1	46.0*	-1.7	-2.4	5.6
24	Cc1ccc(S(=O)(=O)N2CCCCC2)cc1NC(=O)c1cc2ccccc2o1	-0.5	2.9	-9.8	2.6	-14.7	0.5
25	COC(=O)[C@]1(CO)N=C(c2ccc(OCCCO)cc2)O[C@@H]1c1ccccc1CN=[N+]=[N-]	.	.	.	.	-2.8	0.3
26	CCOC(=O)CCNC(=O)N1CCCC(C(=O)c2cccc(OC(C)C)c2)C1 (stereo not drawn)	-0.3	1.6	47.7*	-1.7	-5.0	0.2
27	S=C(Nc1ccccn1)c1ccccn1	-1.9	0.6	-8.7	7.8*	-10.3	.
28	Cc1ccc(C)c(NC(=S)c2ccccn2)c1	-1.1	7.1	.	5.1	-8.2	.
29	C[C@H](CO)N1C[C@H](C)[C@@H](CN(C)Cc2ccc(C(F)(F)F)cc2)Oc2ccc(NC(=O)CCCN(C)C)cc2C1=O	.	.	25.0	.	-11.9	0.7
30	CCCCc1nnc2c(N(C)S(=O)(=O)c3ccccc3)nc3ccccc3n12	4.1	-5.8	43.6*	-5.6	-13.6	6.5

In the list so far, these contain a CF3 group.
item	Compound	PDI turbidity	Rev-erbA mod	GSIS activator	SMARCA2 activ	UUG fidelity	ERp5 block
3	C[C@@H]1CN([C@H](C)CO)C(=O)c2cc(NC(=O)Nc3ccc(C(F)(F)F)cc3)ccc2O[C@@H]1CN(C)S(=O)(=O)c1ccc(F)cc1	.	.	-43.1	.	-3.5	29.5*
5	C[C@H](CO)N1C[C@H](C)[C@@H](CN(C)S(=O)(=O)c2ccc(F)cc2)Oc2ccc(NC(=O)Nc3ccc(C(F)(F)F)cc3)cc2C1=O	-3.8	0.3	-36.3	1.7	-31.1	-5.2
29	C[C@H](CO)N1C[C@H](C)[C@@H](CN(C)Cc2ccc(C(F)(F)F)cc2)Oc2ccc(NC(=O)CCCN(C)C)cc2C1=O	.	.	25.0	.	-11.9	0.7

(further entries)
item	Compound	PDI turbidity	Rev-erbA mod	GSIS activator	SMARCA2 activ	UUG fidelity	ERp5 block
31	O=C(C[C@@H]1C=C[C@@H](NC(=O)Nc2ccc(C(F)(F)F)cc2)[C@@H](CO)O1)NCc1cc(F)cc(F)c1	.	.	6.5	.	16.5	-5.9
32	CCC(CC)CN1CCN=C1Nc1ccccc1	-4.7	-0.9	59.4*	0.7	-16.8	0.2
33	C[C@H](CO)N1C[C@H](C)[C@H](CN(C)S(=O)(=O)c2ccc(Cl)cc2)Oc2ccc(NS(=O)(=O)c3ccccc3)cc2CC1=O	.	.	10.1	.	-5.5	.
34	CC1(C)C2([N+](=O)[O-])CN3CC1([N+](=O)[O-])CN(C2)C31CCCC1	0.4	2.2	3.6	-0.3	.	3.1
35	CC1(C)C2([N+](=O)[O-])CN3CC1([N+](=O)[O-])CN(C2)C3c1ccccc1 (stereo not drawn)	-6.5	-1.1	56.2*	-2.0	.	.
36	CCC(=O)C(C#N)(c1ccc(OC)c(OC)c1)C(C)C (stereo not drawn)	1.3	-6.1	82.0*	-0.6	-30.3	.
37	Cc1nn(-c2ccccc2)c2c1C(O)CC(C)(C)C2 (stereo not drawn)	-4.2	10.0	67.0*	1.9	-20.0	3.1
38	Cc1nn(-c2ccccc2)c2c1C(=O)N(Cc1ccccc1)C(=O)C(C)(C)C2	-2.3	0.9	-11.8	0.0	-8.9	.
39	O=C(CCn1ccc2cc(S(=O)(=O)N3CCCC3)ccc21)NCc1cccc(F)c1	-1.8	-5.6	44.5*	-1.0	0.6	-5.2
40	CCCCOc1ccc(/C=C/C(=O)OCC(=O)NC2CCS(=O)(=O)C2)cc1OCC (stereo not drawn)	-8.1	-1.1	44.8*	-2.1	.	5.2
41	COc1ccc(/C=C/C(=O)OCC(=O)NC2CCS(=O)(=O)C2)cc1 (stereo not drawn)	-1.1	0.3	-6.4	-2.2	-6.2	3.0
42	COc1ccc(CCNC(=O)C(=O)c2c[nH]c3ccccc23)cc1OC	-0.9	6.8	12.3	1.2	-15.0	1.2
43	COc1ccc(CCNC(=O)COC(=O)CCC(=O)c2ccc(F)cc2)cc1OC	6.9	.	86.7*	-1.2	.	2.8
44	COc1ccc(CCNC(=O)COC(=O)Cc2c[nH]c3ccccc23)cc1OC	-1.8	-6.7	51.8*	-0.6	-13.1	6.1
45	CO[C@H]1CN(C)C(=O)c2cc(NS(=O)(=O)c3ccc(Cl)cc3)ccc2OC[C@H](C)NC[C@H]1C	.	.	9.7	.	-15.3	-2.6
